Earlier results on one molecule are cited in patent US10363306B2, “Cytokines and neuroantigens for treatment of immune disorders” (East Carolina University, priority 2009, dated 2019).

For this series, the system named is multiple sclerosis. To be noted: multiple sclerosis patients, clinical benefit; cited from earlier work.

B1: Interferon-beta: Interferon-beta used as mainstream therapy for multiple sclerosis (protein, UniProt P01574 22-187, looked up)
Interferon beta: MSYNLLGFLQRSSNFQCQKLLWQLNGRLEYCLKDRMNFDIPEEIKQLQQFQKEDAALTIYEMLQNIFAIFRQDSSSTGWNETIVENLLANVYHQINHLKTVLEEKLEKEDFTRGKLMSSLHLKRYYGRILHYLKAKEYSHCAWTIVRVEILRNFYFINRLTGYLRN
With B1, the “reduction in the attack rate” value was ~30%.
